Among the data in ChEMBL document CHEMBL4033781 (J Med Chem, 2018) are inhibition and Activity values, retold here.

Protein sequences, listed by entry. Tags and fused reporters are not part of them.
UniProt Q64541, whole entry: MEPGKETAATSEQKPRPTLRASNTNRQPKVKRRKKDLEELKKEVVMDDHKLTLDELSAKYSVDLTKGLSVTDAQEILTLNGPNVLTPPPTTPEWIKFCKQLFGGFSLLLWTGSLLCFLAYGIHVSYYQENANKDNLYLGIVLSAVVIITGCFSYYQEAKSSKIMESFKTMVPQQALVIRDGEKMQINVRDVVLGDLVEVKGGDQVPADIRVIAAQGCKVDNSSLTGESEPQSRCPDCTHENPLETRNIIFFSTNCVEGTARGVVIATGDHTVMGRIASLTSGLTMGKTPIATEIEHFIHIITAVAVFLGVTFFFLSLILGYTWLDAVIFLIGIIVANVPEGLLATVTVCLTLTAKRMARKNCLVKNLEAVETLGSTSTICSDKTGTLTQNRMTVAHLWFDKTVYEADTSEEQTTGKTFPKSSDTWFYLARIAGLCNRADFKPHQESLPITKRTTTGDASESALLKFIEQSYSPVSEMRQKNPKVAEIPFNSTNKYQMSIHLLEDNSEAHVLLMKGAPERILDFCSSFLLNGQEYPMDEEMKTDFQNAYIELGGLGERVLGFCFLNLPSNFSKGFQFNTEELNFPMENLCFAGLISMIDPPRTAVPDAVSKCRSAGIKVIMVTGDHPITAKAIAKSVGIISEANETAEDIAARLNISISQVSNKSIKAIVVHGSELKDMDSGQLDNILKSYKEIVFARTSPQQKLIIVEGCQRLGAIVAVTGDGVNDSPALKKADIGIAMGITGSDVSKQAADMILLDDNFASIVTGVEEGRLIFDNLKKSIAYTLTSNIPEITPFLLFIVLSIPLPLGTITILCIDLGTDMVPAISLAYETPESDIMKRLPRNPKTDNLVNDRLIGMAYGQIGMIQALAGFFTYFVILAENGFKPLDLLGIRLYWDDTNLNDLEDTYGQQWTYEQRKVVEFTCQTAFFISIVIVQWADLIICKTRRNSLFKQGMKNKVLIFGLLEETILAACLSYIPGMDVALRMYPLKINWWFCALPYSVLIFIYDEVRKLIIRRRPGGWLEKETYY

Experiment [1] has as its target Sodium/potassium-transporting ATPase subunit alpha-4 (Rattus norvegicus) (UniProt Q64541). The experiment in a line: Inhibition of Na+/K+-ATPase alpha4 in Long Evans rat cauda epididymis sperm assessed as reduction in total sperm motility at >=10^-8 M after 1 hr by SYTO staining based microscopic method.
Experiment [2] has the same target. The experiment in a line: Inhibition of Na+/K+-ATPase alpha4 in Long Evans rat cauda epididymis sperm assessed as increase in intracellular calcium level in sperm at 10^-8 M after 1 hr by calcium green-1-AM staining based confocal microscopic method. Further details: scale not given: the % may be the effect or the level left. The format is cell-based.
Experiment [3] shares this target. The experiment in a line: Inhibition of Na+/K+-ATPase alpha4 in Long Evans rat cauda epididymis sperm assessed as plasma membrane depolarization at 10^-8 M after 1 hr by [DiSC3(5)] staining based fluorescent assay. Further details: scale not given: the % may be the effect or the level left.

With `C[C@]12C[C@@H](O)[C@H]3[C@@H](CC[C@]4(O)C[C@@H](O)C[C@@H](O)[C@]34CO)[C@@]1(O)CC[C@@H]2c1cn(Cc2ccccc2)nn1`, in experiment [1], the inhibition came out at 60%. Besides, the Activity in experiment [2] and in experiment [3] was 40% throughout.
